Data on three molecules can be found in patent US8952020B2, “Optically active pyrazolylaminoquinazoline, and pharmaceutical compositions and methods of use thereof” (Ambit Biosciences Corp., priority 2010, dated 2015).

Sequences of proteins named here, by UniProt entry; tags and fusion partners are left off.
UniProt P0DMS8, whole entry: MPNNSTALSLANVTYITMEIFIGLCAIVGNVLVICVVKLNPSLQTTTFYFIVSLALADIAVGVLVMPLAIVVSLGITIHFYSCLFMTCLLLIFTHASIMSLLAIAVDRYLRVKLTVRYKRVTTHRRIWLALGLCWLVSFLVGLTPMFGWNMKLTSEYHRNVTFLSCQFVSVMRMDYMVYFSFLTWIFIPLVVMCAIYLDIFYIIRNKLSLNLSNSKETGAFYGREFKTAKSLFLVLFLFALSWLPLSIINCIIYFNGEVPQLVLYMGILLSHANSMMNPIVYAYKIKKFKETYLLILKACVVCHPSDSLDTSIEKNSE
UniProt P11712, whole entry: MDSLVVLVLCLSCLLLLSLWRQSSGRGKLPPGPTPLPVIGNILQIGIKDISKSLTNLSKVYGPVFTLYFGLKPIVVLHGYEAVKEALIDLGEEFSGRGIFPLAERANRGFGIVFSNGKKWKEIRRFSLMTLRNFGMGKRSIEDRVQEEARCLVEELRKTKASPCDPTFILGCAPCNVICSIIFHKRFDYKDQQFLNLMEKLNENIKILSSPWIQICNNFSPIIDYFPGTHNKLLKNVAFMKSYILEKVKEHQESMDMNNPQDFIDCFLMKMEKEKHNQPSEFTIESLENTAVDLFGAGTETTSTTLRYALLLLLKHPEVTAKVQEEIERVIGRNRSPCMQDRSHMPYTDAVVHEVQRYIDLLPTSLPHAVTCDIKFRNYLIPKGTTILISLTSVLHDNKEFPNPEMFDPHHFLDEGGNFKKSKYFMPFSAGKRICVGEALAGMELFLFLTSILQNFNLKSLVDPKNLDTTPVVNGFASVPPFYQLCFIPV

pIC50, pKi: −log10 of the molar value.

One may read the pIC50 as the negative decadic logarithm of the IC50, by convention in mol/L. Lower therefore signals a large IC50. One may read the Tmax as the time at which the peak concentration occurs. Broadly, the pKi is the Ki on a negative log10 scale, so that one unit is a factor of ten.

Data set [1] addresses human ADORA3 (Homo sapiens, UniProt P0DMS8). As to the kind of experiment: Adenosine A3 receptor antagonist PathHunter β-Arrestin cell based assay.
Data set [2] is described as follows: Pharmacokinetic studies in monkeys.
Data set [3] deals with CYP2C9 (Homo sapiens, UniProt P11712). As to the kind of experiment: CYP450 inhibition in human liver microsomes. A general note: Liver microsomes are vesicles of endoplasmic reticulum, rich in cytochrome P450 enzymes.
The target in data set [4] is T1, human adenosine A3 receptor (Homo sapiens, UniProt P0DMS8).
T1 construct: expressed in transfected cells; host or cells: CHO-K1
As to the kind of experiment: Adenosine A3 receptor radioligand binding assay ([125I] AB-MECA). The conditions noted are these: Cheng-Prusoff from observed IC50.

For `Cc1cc(Nc2nc([C@@H](O)c3ccc(F)cc3)nc3ccccc23)n[nH]1` [(S)(+)], in data set [1], the pIC50 was 7.55.
For the molecule `Cc1cc(Nc2nc(C(O)c3ccc(F)cc3)nc3ccccc23)n[nH]1` (racemic) [Racemate], the pIC50 in data set [1] was 7.58; in data set [3], 4.76. The Tmax in data set [2] (Racemic administered PO 10 mg/kg, chiral analysis, label = analyte) turned out to be 3.3 h; in data set [2] (compound administered PO 10 mg/kg, analyte = compound administered) it was 3.3 h.
`Cc1cc(Nc2nc([C@H](O)c3ccc(F)cc3)nc3ccccc23)n[nH]1` [(R)(−)] gave a pKi in data set [4] of 7.59. This molecule had a negative logarithm of the IC50 (pIC50) in data set [1] of 6.67.
